Measured values taken from patent publication US7119100B2, “Oripavine derivatives and their uses as pharmaceuticals” (dated 2006).

Tests used:
mice [1] = assay: mice 55° C. hot plate test (sc/po); details: for hot plate test Max. efficacy: hydrochloride
mice [2] = assay: acetic acid writhing test

| SMILES | hot plate test ED50 (mice [1]) | hot plate test Max. efficacy (mice [1]) | acetic acid writhing test ED50 (mice [2]) | acetic acid writhing test Max. efficacy (mice [2]) |
| --- | --- | --- | --- | --- |
| COC12CCC3(CC1C(C)(O)CC1CC1)C1Cc4ccc(O)c5c4C3(CCN1CC1CC1)C2O5 (centres unmarked) | 200 µg/kg | 71.2% | 6.39 µg/kg | 100.0% |
| COC12CCC3(CC1C(C)(O)CC1CCCC1)C1Cc4ccc(O)c5c4C3(CCN1CC1CC1)C2O5 (centres unmarked) | 50 µg/kg | 54.2% | 55.9 µg/kg | 100% |
